Assay [1] concerns the target fluorescently labelled dodecapeptide hirugen. Description: fluorescence titration of fluorescently labelled hirugen with thrombin, no antibody.
For assay [2] the target is unchanged. Description: fluorescence titration of fluorescently labelled hirugen with thrombin in the presence of 700 nM IgA as competitor.

EC50 (read off the curve) data for one substance are collected here from patent US20160347862A1.

Take “human thrombin (from UniProt P00734 314-363; P00734 364-622) (enzyme)”: the figures for the EC50 (read off the curve) in assay [1] and in assay [2] were 40 nM and 800 nM, respectively.
